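Step 1: Grow cells in 96-well plates. Step 2: Expose to compound for 48 hours at 5 concentrations. Step 3: Interpolate endpoints linearly; if unreached, use highest concentration. GI50 is the concentration that inhibits growth by half. TGI: total growth inhibition.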
What was measured:
Experiment in all cases: NCI-60 cell line screen, 48 h
786-0 renal = system: 786-0 renal
A498 renal = system: A498 renal
A549 NSCLC = system: A549 NSCLC
ACHN renal = system: ACHN renal
BT-549 breast = system: BT-549 breast
CAKI-1 renal = system: CAKI-1 renal
CCRF-CEM leukemia = system: CCRF-CEM leukemia
COLO 205 colon = system: COLO 205 colon
DU-145 prostate = system: DU-145 prostate
EKVX NSCLC = system: EKVX NSCLC
HCC-2998 colon = system: HCC-2998 colon
HCT-116 colon = system: HCT-116 colon
HCT-15 colon = system: HCT-15 colon
HL-60(TB) leukemia = system: HL-60(TB) leukemia
HOP-62 NSCLC = system: HOP-62 NSCLC
HOP-92 NSCLC = system: HOP-92 NSCLC
HS 578T breast = system: HS 578T breast
HT29 colon = system: HT29 colon
IGROV1 ovarian = system: IGROV1 ovarian
K-562 leukemia = system: K-562 leukemia
KM12 colon = system: KM12 colon
LOX IMVI melanoma = system: LOX IMVI melanoma
M14 melanoma = system: M14 melanoma
MALME-3M melanoma = system: MALME-3M melanoma
MCF7 breast = system: MCF7 breast
MDA-MB-231 breast = system: MDA-MB-231 breast
MDA-MB-435 = system: MDA-MB-435
MDA-N = system: MDA-N
MOLT-4 leukemia = system: MOLT-4 leukemia
NCI-H226 lung = system: NCI-H226 lung
NCI-H23 lung = system: NCI-H23 lung
NCI-H322M lung = system: NCI-H322M lung
NCI-H460 lung = system: NCI-H460 lung
NCI-H522 lung = system: NCI-H522 lung
NCI/ADR-RES ovarian = system: NCI/ADR-RES ovarian
OVCAR-3 ovarian = system: OVCAR-3 ovarian
OVCAR-4 ovarian = system: OVCAR-4 ovarian
OVCAR-5 ovarian = system: OVCAR-5 ovarian
OVCAR-8 ovarian = system: OVCAR-8 ovarian
PC-3 prostate = system: PC-3 prostate
RPMI-8226 leukemia = system: RPMI-8226 leukemia
RXF 393 renal = system: RXF 393 renal
SF-268 CNS = system: SF-268 CNS
SF-295 CNS = system: SF-295 CNS
SF-539 CNS = system: SF-539 CNS
SK-MEL-2 melanoma = system: SK-MEL-2 melanoma
SK-MEL-28 melanoma = system: SK-MEL-28 melanoma
SK-MEL-5 melanoma = system: SK-MEL-5 melanoma
SK-OV-3 ovarian = system: SK-OV-3 ovarian
SN12C renal = system: SN12C renal
SNB-19 CNS = system: SNB-19 CNS
SNB-75 CNS = system: SNB-75 CNS
SR leukemia = system: SR leukemia
SW-620 colon = system: SW-620 colon
T-47D breast = system: T-47D breast
TK-10 renal = system: TK-10 renal
U251 CNS = system: U251 CNS
UACC-257 melanoma = system: UACC-257 melanoma
UACC-62 melanoma = system: UACC-62 melanoma
UO-31 renal = system: UO-31 renal

Molecule O=C(OCC(F)([N+](=O)[O-])[N+](=O)[O-])OCC(F)([N+](=O)[O-])[N+](=O)[O-] has a GI50 (786-0 renal) of 4.46 µM, a TGI (786-0 renal) of 16.4 µM and a GI50 (A498 renal) of 3.54 µM. The TGI (A498 renal) was 19.4 µM, the GI50 (A549 NSCLC) was 3.05 µM and the TGI (A549 NSCLC) was 20.4 µM. It also gave a GI50 (ACHN renal) of 3.14 µM, a TGI (ACHN renal) of 15 µM and a GI50 (BT-549 breast) of 18.1 µM. For the same molecule, the TGI (BT-549 breast) was 32.4 µM, the GI50 (CAKI-1 renal) was 1.65 µM and the TGI (CAKI-1 renal) was 4.03 µM. The GI50 (CCRF-CEM leukemia) was 0.879 µM, the TGI (CCRF-CEM leukemia) was 18 µM and the GI50 (COLO 205 colon) was 1.25 µM. For the same molecule, the TGI (COLO 205 colon) was 2.76 µM, the GI50 (DU-145 prostate) was 5.93 µM and the TGI (DU-145 prostate) was 18.5 µM. The GI50 (EKVX NSCLC) was 5.65 µM, the TGI (EKVX NSCLC) was 20.6 µM and the GI50 (HCC-2998 colon) was 4.39 µM. It also gave a TGI (HCC-2998 colon) of 9.61 µM, a GI50 (HCT-116 colon) of 1.17 µM and a TGI (HCT-116 colon) of 5.88 µM. The GI50 (HCT-15 colon) was 1.73 µM, the TGI (HCT-15 colon) was 6.25 µM and the GI50 (HL-60(TB) leukemia) was 1.31 µM. For the same molecule, the TGI (HL-60(TB) leukemia) was 4.57 µM, the GI50 (HOP-62 NSCLC) was 8.7 µM and the TGI (HOP-62 NSCLC) was 23.4 µM. The GI50 (HOP-92 NSCLC) was 3.3 µM, the TGI (HOP-92 NSCLC) was 11.8 µM and the GI50 (HS 578T breast) was 0.552 µM. For the same molecule, the TGI (HS 578T breast) was 3.17 µM, the GI50 (HT29 colon) was 1.35 µM and the TGI (HT29 colon) was 15.5 µM. It also gave a GI50 (IGROV1 ovarian) of 2.81 µM, a TGI (IGROV1 ovarian) of 15 µM and a GI50 (K-562 leukemia) of 1.97 µM. It also gave a TGI (K-562 leukemia) of 74.2 µM, a GI50 (KM12 colon) of 6.18 µM and a TGI (KM12 colon) of 19.9 µM. The GI50 (LOX IMVI melanoma) was 0.752 µM, the TGI (LOX IMVI melanoma) was 12.4 µM and the GI50 (M14 melanoma) was 2.44 µM. The TGI (M14 melanoma) was 16.2 µM, the GI50 (MALME-3M melanoma) was 1.49 µM and the TGI (MALME-3M melanoma) was 10.5 µM. The GI50 (MCF7 breast) was 3.72 µM, the TGI (MCF7 breast) was 27.2 µM and the GI50 (MDA-MB-231 breast) was 9.73 µM. For the same molecule, the TGI (MDA-MB-231 breast) was 25.3 µM, the GI50 (MDA-MB-435) was 1.38 µM and the TGI (MDA-MB-435) was 16.1 µM. For the same molecule, the GI50 (MDA-N) was 1.7 µM, the TGI (MDA-N) was 8.29 µM and the GI50 (MOLT-4 leukemia) was 1.97 µM. For the same molecule, the TGI (MOLT-4 leukemia) was 22.3 µM, the GI50 (NCI-H226 lung) was 7.9 µM and the TGI (NCI-H226 lung) was 21.9 µM. The GI50 (NCI-H23 lung) was 4.71 µM, the TGI (NCI-H23 lung) was 20.7 µM and the GI50 (NCI-H322M lung) was 12.4 µM. The TGI (NCI-H322M lung) was 27 µM, the GI50 (NCI-H460 lung) was 1.65 µM and the TGI (NCI-H460 lung) was 7.36 µM. For the same molecule, the GI50 (NCI-H522 lung) was 0.541 µM, the TGI (NCI-H522 lung) was 2.55 µM and the GI50 (NCI/ADR-RES ovarian) was 5.07 µM. For the same molecule, the TGI (NCI/ADR-RES ovarian) was 25.4 µM, the GI50 (OVCAR-3 ovarian) was 4.35 µM and the TGI (OVCAR-3 ovarian) was 17.3 µM. The GI50 (OVCAR-4 ovarian) was 10.8 µM, the TGI (OVCAR-4 ovarian) was 24.1 µM and the GI50 (OVCAR-5 ovarian) was 8.5 µM. The TGI (OVCAR-5 ovarian) was 28.6 µM, the GI50 (OVCAR-8 ovarian) was 3.39 µM and the TGI (OVCAR-8 ovarian) was 16.1 µM. It also gave a GI50 (PC-3 prostate) of 9.06 µM, a TGI (PC-3 prostate) of 36.4 µM and a GI50 (RPMI-8226 leukemia) of 0.339 µM. The TGI (RPMI-8226 leukemia) was 23.3 µM, the GI50 (RXF 393 renal) was 5.2 µM and the TGI (RXF 393 renal) was 20.8 µM. For the same molecule, the GI50 (SF-268 CNS) was 5.47 µM, the TGI (SF-268 CNS) was 20.1 µM and the GI50 (SF-295 CNS) was 13.6 µM. For the same molecule, the TGI (SF-295 CNS) was 29.4 µM, the GI50 (SF-539 CNS) was 12.1 µM and the TGI (SF-539 CNS) was 25 µM. It also gave a GI50 (SK-MEL-2 melanoma) of 5.36 µM, a TGI (SK-MEL-2 melanoma) of 31 µM and a GI50 (SK-MEL-28 melanoma) of 7.63 µM. For the same molecule, the TGI (SK-MEL-28 melanoma) was 26.9 µM, the GI50 (SK-MEL-5 melanoma) was 1.99 µM and the TGI (SK-MEL-5 melanoma) was 8.51 µM. For the same molecule, the GI50 (SK-OV-3 ovarian) was 14.4 µM, the TGI (SK-OV-3 ovarian) was 28.2 µM and the GI50 (SN12C renal) was 5.28 µM. The TGI (SN12C renal) was 17 µM, the GI50 (SNB-19 CNS) was 2.48 µM and the TGI (SNB-19 CNS) was 29.7 µM. The GI50 (SNB-75 CNS) was 0.301 µM, the TGI (SNB-75 CNS) was 2.89 µM and the GI50 (SR leukemia) was 1.47 µM. For the same molecule, the TGI (SR leukemia) was 22.6 µM, the GI50 (SW-620 colon) was 1.24 µM and the TGI (SW-620 colon) was 16.7 µM. It also gave a GI50 (T-47D breast) of 3.43 µM, a TGI (T-47D breast) of 19.1 µM and a GI50 (TK-10 renal) of 4.72 µM. For the same molecule, the TGI (TK-10 renal) was 11.3 µM, the GI50 (U251 CNS) was 8.46 µM and the TGI (U251 CNS) was 33 µM. For the same molecule, the GI50 (UACC-257 melanoma) was 6.28 µM, the TGI (UACC-257 melanoma) was 22 µM and the GI50 (UACC-62 melanoma) was 2.02 µM. It also gave a TGI (UACC-62 melanoma) of 10.7 µM, a GI50 (UO-31 renal) of 7.68 µM and a TGI (UO-31 renal) of 21.5 µM.
